# Yeast mating assay 1: variants of the scFv Ab-14

Source: Engelhart et al. 2022 (doi:10.1038/s41597-022-01779-4), MIT Lincoln Laboratory and A-Alpha Bio; data file from the FLAb repository.

Binding partner: SARS-CoV-2 spike HR2 peptide, sequence PDVDLGDISGINAS.

Each scFv is VH, a (GGGGS)3 linker, VL, as in the parent Ab-14, and differs from it in the CDRs of the light chain only.
VH: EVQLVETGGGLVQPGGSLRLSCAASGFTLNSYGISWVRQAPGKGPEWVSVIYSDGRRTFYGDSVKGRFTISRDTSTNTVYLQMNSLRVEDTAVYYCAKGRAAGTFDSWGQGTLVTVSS
VL: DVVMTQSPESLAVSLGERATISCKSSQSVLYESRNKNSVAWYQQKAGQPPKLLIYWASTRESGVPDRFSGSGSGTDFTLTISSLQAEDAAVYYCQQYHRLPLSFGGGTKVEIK

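The parent was found by panning a naive human phage display library on the peptide. In library AAYL50, one, two or three CDR residues were substituted; doubles and triples were drawn at random. Affinity was read by AlphaSeq, a pooled yeast mating assay with surface-displayed partners. Mating (16 h, 30 °C) was followed by selection of diploids and sequencing of their barcodes. Scores were corrected for input abundance and mapped to Kd with protein pairs of known affinity run in the same pool. Each pool was mated in three replicate cultures.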

The parent's light chain CDRs are KSSQSVLYESRNKNSVA, WASTRES, QQYHRLPLS; each variant's own CDRs replace them letter for letter.
Numbers give log10(Kd / nM), so 0 is 1 nM and 3 is 1 µM. Smaller is tighter.
Averages over replicates are reported, and they cover detected replicates only.
"nd" means that the variant was in the library but no mating with the target was seen in that replicate; the authors take this as a sign of poor binding, and no number exists.
Order: sorted from the lowest average up, undetected variants last.
Nonspecific signal, from three strains lacking the peptide, appeared in 18% of pairings of library AAYL50, centred on 4.19 (5% of these signals below 2.99); values are not corrected for it.
For reference, the parent read 0.65 as the reference entry and 1.68 as a member of this library.

log10 Kd (nM) by replicate,"log10 Kd (nM), mean",CDR-L1,CDR-L2,CDR-L3
0.48 0.71 0.59,0.60,KSSQSWLYESRNVNSVA,WASTRES,QQYHRLPLS
0.54 0.89 0.76,0.73,KSGQCVYYESRNKNSVA,WASTRES,QQYHRLPLS
0.65 0.83 0.78,0.76,KSSQSVLYDSRNKESVA,WASIRES,QQYHRLPLS
0.70 0.92 0.77,0.80,KSSKHVLYESLNKNSVA,WASTRES,QQYHRLPLS
0.88 0.95 0.96,0.93,KSEQSVLYESRNKNSVA,WASTRES,QQYHRNPLS
0.52 1.07 1.29,0.96,KSSQSVLYESRNKNSVA,WASTRES,QQDGRLPKS
1.11 1.09 1.10,1.10,KSSQIVYYESRNKNSVA,WASTRES,QQYHRLPLS
1.16 1.17 1.18,1.17,KSSQSVLYESRNGNSVA,WASCRES,QQYHRLPLS
1.04 1.27 1.30,1.20,KQSQSVLYESRWKNSVA,WASQRES,QQYHRLPLS
1.16 1.18 1.33,1.22,KSSQSVLYPSRNKNSVA,WASTRES,QQYHRMPLS
1.29 1.20 1.33,1.27,KSSQHVLYESRNKNSVA,WASTRES,QQSHRQPLS
1.42 1.23 1.53,1.39,KSSQSVLYESRIKNSVA,WANTRES,QQYHGLPLS
1.42 1.44 1.55,1.47,KSSESVLYESRNKNSVA,WASTRES,QQYSRLPLQ
1.21 1.72 1.90,1.61,KSSQSVLYESRNKNSVA,WAEMRES,QQQHRLPLS
2.14 1.87 1.69,1.90,KSSQSVLYFSRNLNSVA,WASTRES,QQYHRLPLS
1.80 1.88 2.25,1.98,KSSASCLYRSRNKNSVA,WASTRES,QQYHRLPLS
2.01 1.92 2.08,2.00,KSSQSVLYESRNKNSVA,WASTREL,QDYHRLPLI
nd 2.23 nd,2.23,KSSQSVLMESRNLNSVL,WASTRES,QQYHRLPLS
2.35 2.61 2.32,2.43,KSRQSVLYESRNKNSVA,WASTRES,QQSHRLPLI
2.61 2.18 3.21,2.67,KSSQEVLYESRNKNFVA,WASTRES,QQYHTLPLS
nd 2.89 nd,2.89,KSSQSVLYESRNLNSVA,WASTRES,SQYHRLPLP
2.75 2.97 3.19,2.97,QSSSSVLYEKRNKNSVA,WASTRES,QQYHRLPLS
nd nd 3.16,3.16,KSSQSVLYESENKNSVA,WASTRES,QQLHRLPLK
3.46 nd nd,3.46,PSSQSVLYESRNKNSVA,WHSTRES,QQYHRLPIS
3.14 3.69 4.15,3.66,LHSQNVLYESRNKNSVA,WASTRES,QQYHRLPLS
4.36 3.65 4.30,4.10,KSSQSVLYSSRNKNSVA,WASTRES,LQYHRLPAS
5.20 3.12 4.46,4.26,KSSQSVLYESRFKNSVA,WASTRES,QAKHRLPLS
4.04 3.92 5.01,4.32,KSSQSVLYESRNKNSVA,WASTRTS,RQYHRLPLS
5.03 3.74 nd,4.39,DSDQSVLYESRNKNSVA,WASTRES,QQYHSLPLS
4.34 5.25 nd,4.80,KSSQSKIYESRNKNSVA,WASTRES,QQYHRNPLS
nd nd 5.53,5.53,KSDQSVAYESRNKNSVA,WASTRES,QQWHRLPLS
nd nd nd,nd,KSSQSVLYESRNKHSVA,WASTHES,QQKHRLPLS
nd nd nd,nd,KSSQRVLYESRNKNSVA,WASTRES,QQYHRLPAQ
nd nd nd,nd,KSSQSVLYESRNKNYVA,GASTRES,QQYHTLPLS
nd nd nd,nd,KSSQSVLYESANKNSVE,WASTRES,QQYHRLKLS
nd nd nd,nd,KSSQSVLYESRNKNSVA,WSSTGVS,QQYHRLPLS
nd nd nd,nd,KSSQSVLYESRNKNSHA,WASTRHS,QQYHRLPLS
nd nd nd,nd,KSSQSVLYESRNKNSVA,WLSTRES,QQYHPLPLS
nd nd nd,nd,KSSQSVLYESRNKNSGA,WASTREY,QQYHRLPLD
nd nd nd,nd,KSEQSVLYESRMKNSVA,WASTRES,QQKHRLPLS
nd nd nd,nd,KSSQSVLRESRNKNSVA,WASTRES,VQYHRLCLS
nd nd nd,nd,KSSQSVLYESRNKNSVA,QASTRES,QQYHRLYLP
nd nd nd,nd,KSSQSRLFESRNKNSVA,WASTSES,QQYHRLPLS

Repeated from above, the 5 best binders with a signal in all replicates:

CDR-L1	CDR-L2	CDR-L3	log10 Kd (nM) by replicate	log10 Kd (nM), mean
KSSQSWLYESRNVNSVA	WASTRES	QQYHRLPLS	0.48 0.71 0.59	0.60
KSGQCVYYESRNKNSVA	WASTRES	QQYHRLPLS	0.54 0.89 0.76	0.73
KSSQSVLYDSRNKESVA	WASIRES	QQYHRLPLS	0.65 0.83 0.78	0.76
KSSKHVLYESLNKNSVA	WASTRES	QQYHRLPLS	0.70 0.92 0.77	0.80
KSEQSVLYESRNKNSVA	WASTRES	QQYHRNPLS	0.88 0.95 0.96	0.93